# Reference: PubChem BioAssay AID845 (Columbia University Molecular Screening Center, 2007)
# This is a selection; strong and weak results do not stand in their true shares. Calls of active or inactive are those of the source.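 The calls were made as follows: active = cell count reduction more than 3 SD above the screen-wide mean (cut at about 70% in these data); inactive = the rest.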
# Test: HUVEC cell count loss after compound exposure – imaging, Hoechst nuclear count, IL-1B stimulus, cytotoxicity control for IL-1B NFkB translocation project, primary screen (AID 845);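 also: normalized per plate to untreated control cells as the no-loss baseline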
# Conditions: IL-1B stimulated, at 2 µM, active compounds read high
row,Compound,cell count reduction
1,CC1CCN(C(=O)Oc2c(Cl)cc(Cl)c3cccnc23)CC1,inactive: 6.6%
2,CC(=O)N1C2C3N(C(C)=O)C1C1N(C(C)=O)C(C(N1C(C)=O)N3C(C)=O)N2C(C)=O,inactive: -13.6%
3,O=[N+]([O-])c1cccc2n[nH]nc12,inactive: -11.8%
4,CCc1nc2c(n1)c1c(non1O)c1c2no[n+]1[O-],inactive: -3.6%
5,CC(C)CC(=O)NC(Sc1ccc(Cl)cc1)C(Cl)(Cl)Cl (configuration not stated),inactive: 9.3%
6,Cc1c2non([O-])c-2c(C)[n+](=O)[n+]1[O-],inactive: -8%
7,Oc1ccccc1CNc1ccccn1,inactive: -137%
8,CN1CCCC(OC(=O)C(c2ccccc2)c2ccccc2)C1 (configuration not stated),inactive: -15.4%
9,CCOP(=O)(Nc1ccccc1)OCC,inactive: 10.6%
10,COC(=O)c1cc2c(s1)N=C(c1ccccc1)N(C)P2(=O)N1CCOCC1 (configuration not stated),inactive: -37.6%
11,CCC(=O)N1C2C3N(C(=O)CC)C1C1N(C(=O)CC)C(C(N1C(=O)CC)N3C(=O)CC)N2C(=O)CC,inactive: -22.7%
12,CCOC(=O)NC(Sc1ccccc1)C(Cl)(Cl)Cl (configuration not stated),inactive: -19.2%
13,O=P1(Nc2nc3ccc(Cl)cc3s2)COc2ccccc2O1 (configuration not stated),inactive: 12%
14,c1nnnn1CCn1cnnn1,inactive: -11.4%
15,O=P(Nc1nccs1)(c1ccccc1)c1ccccc1,inactive: -30.1%
16,O=C(OC1CN2CCC1CC2)c1cccc(Cl)c1 (configuration not stated),inactive: -7.3%

row,Compound,cell count reduction
1,Cc1ccc(OCC(=O)OC2CN3CCC2CC3)cc1 (configuration not stated),inactive: -2%
2,O=P1(Nc2ccc(Br)cn2)COc2ccccc2OC1,inactive: 0%
3,O=P1(Nc2ncccn2)COc2ccccc2OC1,inactive: 17%
4,Cc1nn(-c2ccccc2)c2c1P(=O)(N1CCOCC1)N(C)C(c1ccccc1)=N2 (configuration not stated),inactive: -5.7%
5,CC1(CBr)Cn2c(nc3ccccc3c2=O)S1 (configuration not stated),inactive: 24.5%
6,Clc1n[nH]nc1-c1nn[nH][15n]1,inactive: 5.6%
7,O=P1(Nc2ccccn2)COc2ccccc2OC1,inactive: -26.7%
8,Cc1cccc(OCC(=O)OC2CN3CCC2CC3)c1 (configuration not stated),inactive: -12.3%
9,O=[N+]([O-])c1ccc2c(c1)nnn2O,inactive: 8.9%
10,CCOP1(=S)c2c(C)nn(CCC#N)c2N=C(c2ccc(F)cc2)N1C (configuration not stated),inactive: 5.2%
11,CCOP1(=S)c2c(C)nn(CCC#N)c2N=C(c2ccccc2F)N1C (configuration not stated),inactive: 0%
12,CCN(CC)C(=S)SC(NC=O)C(Cl)(Cl)Cl (configuration not stated),inactive: -8.8%
13,O=C(OC1CN2CCC1CC2)C12CC3CC(CC(C3)C1)C2 (configuration not stated),inactive: 5.2%
14,CCC(C)N(CC(C)C)C(=S)SC(NC(C)=O)C(Cl)(Cl)Cl (configuration not stated),inactive: -58.8%
15,O=C(COc1ccccc1)OC1CN2CCC1CC2 (configuration not stated),inactive: 5.8%
16,COP1(=S)c2c(C)nn(CCC#N)c2N=C(c2ccc(F)cc2)N1C (configuration not stated),inactive: -20%
